How the values were obtained:
[1] = system: Mus musculus; assay: Antidiabetic activity against 12 hrs fasted high fat diet-STZ-induced C57BL/6J mouse model of type 2 diabetes assessed as decrease in fasting blood glucose level at 50 mg/kg, po qd administered for 106 days (reference value: 16.8 mmol/L); type: functional; settings: time 106 day
[2] = system: Mus musculus; assay: Antidiabetic activity against 12 hrs fasted high fat diet-STZ-induced C57BL/6J mouse model of type 2 diabetes assessed as decrease in fasting blood glucose level at 50 mg/kg, po qd administered for 106 days in presence of metformin (reference value: 16.8 mmol/L); type: functional; settings: time 106 day

Compound `Cc1ccccc1C1C(=O)N(C)c2cnc(Nc3ccc(S(N)(=O)=O)cc3)nc2N1C` (configuration not stated) has an Activity [1] of 13.3 mmol/L and an Activity [2] of 7.4 mmol/L.

Source: ChEMBL document CHEMBL5137114, “Discovery of IHMT-MST1-58 as a Novel, Potent, and Selective MST1 Inhibitor for the Treatment of Type 1/2 Diabetes” (J Med Chem, 2022)
